The values that follow are results of earlier work, collected in patent US9119805B2, “Therapy and prevention of problem drinking” (THE UNIVERSITY OF SYDNEY, priority 2009, dated 2015).

Amino acid sequences for entries named in this document (tags omitted). A change or cut given only in a name is not applied to a line headed by its entry.
UniProt P30559: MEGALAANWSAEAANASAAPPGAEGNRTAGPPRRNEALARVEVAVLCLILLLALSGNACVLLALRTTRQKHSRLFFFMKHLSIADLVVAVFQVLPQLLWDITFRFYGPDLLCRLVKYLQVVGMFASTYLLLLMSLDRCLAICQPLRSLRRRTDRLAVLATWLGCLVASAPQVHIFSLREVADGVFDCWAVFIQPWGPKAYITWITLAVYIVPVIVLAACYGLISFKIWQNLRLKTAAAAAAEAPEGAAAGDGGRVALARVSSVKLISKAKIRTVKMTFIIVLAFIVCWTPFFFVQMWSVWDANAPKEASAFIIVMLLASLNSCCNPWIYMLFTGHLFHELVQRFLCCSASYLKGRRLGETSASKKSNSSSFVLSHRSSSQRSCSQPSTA

The data set deals with oxytocin receptor (Homo sapiens, UniProt P30559). The conditions noted are these: cited from earlier work.

In the case of `Cc1cc(C(=O)N2Cc3cnn(C)c3Nc3ccccc32)ccc1CNC(=O)N1CCN(Cc2cc(O)cc(O)c2)CC1` [WAY-267,464], the “affinity, potency and selectivity at the oxytocin receptor” value was “high-affinity, potent and selective non-peptide agonist”.
